Earlier results in US20070281909A1, “Creatine phosphate prodrugs, compositions and uses thereof” (XenoPort, Inc., priority 2006, published 2007).

Details: in vivo; cited from earlier work

Nc1nc2ccc(OC(F)(F)F)cc2s1 [riluzole]
Extension of survival in ALS: about three months
